Measurements taken from ChEMBL document CHEMBL4732024, “Second-generation tricyclic pyrimido-pyrrolo-oxazine mTOR inhibitor with predicted blood-brain barrier permeability” (RSC Med Chem, 2021).

Organism: Homo sapiens
Test: Selectivity index, ratio of Ki for inhibition of alexa fluor 647-labeled kinase tracer 314 binding to recombinant N-terminal His6-tagged p110alpha (unknown origin) to Ki for inhibition of alexa fluor 647-labeled kinase tracer 314 binding to recombinant N-terminal GST-fused mTOR (1360 to 2549 residues) (unknown origin)

SMILES | Ratio Ki
C[C@@H]1COCCN1c1nc(-c2cnc(N)cc2C(F)F)nc2c1C[C@@H]1COCCN21 | 19
C[C@@H]1COCCN1c1nc(-c2cnc(N)cc2C(F)(F)F)nc2c1C[C@@H]1COCCN21 | 2.3
C[C@@H]1COCCN1c1nc(-c2nnc(N)s2)nc2c1C[C@@H]1COCCN21 | 189
C[C@@H]1COCCN1c1nc(-c2ccc(N)nn2)nc2c1C[C@@H]1COCCN21 | 77
C[C@@H]1COCCN1c1nc(-c2nc(N)ns2)nc2c1C[C@@H]1COCCN21 | 14
C[C@@H]1COCCN1c1nc(-c2cnc(N)nc2C(F)F)nc2c1C[C@@H]1COCCN21 | 0.5
C[C@@H]1COCCN1c1nc(-c2cnc(N)s2)nc2c1C[C@@H]1COCCN21 | 166
C[C@@H]1COCCN1c1nc(-c2cnc(N)nc2C(F)(F)F)nc2c1C[C@@H]1COCCN21 | 0.22
